Assay results from patent EP4603105A1, “PHARMACEUTICAL COMPOSITION CONTAINING CYCLIC COMPOUND HAVING SELECTIVE KRAS INHIBITORY EFFECT AGAINST HRAS AND NRAS” (CHUGAI SEIYAKU KABUSHIKI KAISHA, priority 2022, dated 2024).

By UniProt entry, the sequences of proteins in these tests, tags left out.
UniProt P01112, whole entry: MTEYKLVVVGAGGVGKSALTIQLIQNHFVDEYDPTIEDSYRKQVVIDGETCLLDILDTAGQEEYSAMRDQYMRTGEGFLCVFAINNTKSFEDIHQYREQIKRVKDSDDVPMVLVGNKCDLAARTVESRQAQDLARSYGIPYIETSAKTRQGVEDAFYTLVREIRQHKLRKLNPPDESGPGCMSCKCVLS

target: HRAS wild-type protein (Homo sapiens, UniProt P01112); experiment: Binding to HRAS by surface plasmon resonance (SPR), KD and KD ratio to KRAS; settings: ratio of KD for HRAS wild-type protein to KD for KRAS

| SMILES | HRAS /KRAS |
| --- | --- |
| CCCOCC1C(=O)NC(C(C)CC)C(=O)N(C)CC(=O)N(C)C2CC=CCCN(C2=O)C(Cc2ccc(C)cc2)C(=O)N(C)CC(=O)NC(CCc2ccc(C(F)(F)F)c(Cl)c2)C(=O)N2CC(OCC)CC2C(=O)NC2(CC(C)(C)C2)C(=O)N(C)C(C2CCCC2)C(=O)N(C)C(C(=O)N(C)CC)CC(=O)N1C (stereo not shown) | B (a compound having 3 or more and less than 10 is denoted as B) |
| CCC[C@H]1C(=O)N[C@@H]([C@@H](C)CC)C(=O)N(C)CC(=O)N(C)[C@H]2C/C=C\CCN(C2=O)[C@@H](CC2CCC(F)(F)CC2)C(=O)N(C)CC(=O)N[C@@H](CCc2ccc(C(F)(F)F)c(OC)c2)C(=O)N2C[C@@H](C)C[C@H]2C(=O)N(C)C2(CCC2)C(=O)N(C)[C@@H](C2CCCC2)C(=O)N(C)[C@H](C(=O)N(C)C)CC(=O)N1C | A (a compound having 10 or more and less than 20 is denoted as A) |
| CCC[C@H]1C(=O)N[C@@H]([C@@H](C)CC)C(=O)N2C[C@@H](OC)C[C@H]2C(=O)N(C)[C@H]2C/C=C\CCN(C2=O)[C@@H](Cc2ccc(C)cc2)C(=O)N(C)CC(=O)N[C@@H](CCc2ccc(C(F)(F)F)c(OC)c2)C(=O)N2C[C@@H](C)C[C@H]2C(=O)NC2(CC(C)(C)C2)C(=O)N(C)[C@@H](C2CCCC2)C(=O)N(C)[C@H](C(=O)N(C)C)CC(=O)N1C | B (a compound having 3 or more and less than 10 is denoted as B) |
| CCC[C@H]1C(=O)N[C@@H]([C@@H](C)CC)C(=O)N(C)CC(=O)N(C)[C@H]2C/C=C\CCN(C2=O)[C@@H](Cc2ccc(C(F)(F)F)cc2)C(=O)N(C)CC(=O)N[C@@H](CCc2ccc(C(F)(F)F)c(OC)c2)C(=O)N2C[C@@H](C)C[C@H]2C(=O)N(C)C2(CCC2)C(=O)N(C)[C@@H](C2CCCC2)C(=O)N(C)[C@H](C(=O)N(C)C)CC(=O)N1C | B (a compound having 3 or more and less than 10 is denoted as B) |
| CCO[C@@H]1C[C@H]2C(=O)NC3(CC(C)(C)C3)C(=O)N(C)[C@@H](C3CCCC3)C(=O)N(C)[C@H](C(=O)N(C)C)CC(=O)N(C)[C@@H](COC)C(=O)N[C@@H]([C@@H](C)CC)C(=O)N(C)CC(=O)N(C)[C@H]3C/C=C\CCN(C3=O)[C@@H](Cc3ccc(C)cc3)C(=O)N(C)CC(=O)N[C@@H](CCc3cc(F)c(C(F)(F)F)c(F)c3)C(=O)N2C1 | A (a compound having 10 or more and less than 20 is denoted as A) |
| CCO[C@@H]1C[C@H]2C(=O)NC3(CC(C)(C)C3)C(=O)N(C)[C@@H](C3CCCC3)C(=O)N(C)[C@H](C(=O)N(CC)CC)CC(=O)N(C)[C@@H](COC)C(=O)N[C@@H]([C@@H](C)CC)C(=O)N(C)CC(=O)N(C)[C@H]3C/C=C\CCN(C3=O)[C@@H](Cc3ccc(C)cc3)C(=O)N(C)CC(=O)N[C@@H](CCc3ccc(C(F)(F)F)c(Cl)c3)C(=O)N2C1 | A (a compound having 10 or more and less than 20 is denoted as A) |
| CCO[C@H](C)[C@@H]1NC(=O)[C@H](CC(C)C)N(C)C(=O)C[C@@H](C(=O)N(C)CC)N(C)C(=O)[C@H](C2CCCC2)N(C)C(=O)C2(CC(C)(C)C2)NC(=O)[C@@H]2C[C@H](C)CN2C(=O)[C@H](CCc2ccc(C(F)(F)F)c(OC)c2)NC(=O)CN(C)C(=O)[C@H](Cc2ccc(C)cc2)N2CC/C=C\C[C@@H](C2=O)N(C)C(=O)[C@@H]2CCCN2C1=O | A (a compound having 10 or more and less than 20 is denoted as A) |
| CCOC[C@H]1C(=O)N[C@@H]([C@@H](C)OCC)C(=O)N2CCC[C@H]2C(=O)N(C)[C@H]2C/C=C\CCN(C2=O)[C@@H](Cc2ccc(C)cc2)C(=O)N(C)CC(=O)N[C@@H](CCc2ccc(C(F)(F)F)c(OC)c2)C(=O)N2C[C@@H](C)C[C@H]2C(=O)NC2(CC(C)(C)C2)C(=O)N(C)[C@@H](C2CCCC2)C(=O)N(C)[C@H](C(=O)N(C)CC)CC(=O)N1C | A (a compound having 10 or more and less than 20 is denoted as A) |

same assay, conditions: ratio of KD with respect to HRAS wild-type protein to KD with respect to KRAS

| SMILES | HRAS /KRAS |
| --- | --- |
| CCO[C@@H]1C[C@H]2C(=O)NC3(CCC3)C(=O)N(C)[C@@H](C3CCCC3)C(=O)N(C)[C@H](C(=O)N(C)C)CC(=O)N(C)[C@@H](CC3CC3)C(=O)N[C@@H]([C@@H](C)CC)C(=O)N(C)CC(=O)N(C)[C@H]3C/C=C\CCN(C3=O)[C@@H](Cc3ccc(F)cc3)C(=O)N(C)CC(=O)N[C@@H](CCc3ccc(Cl)c(Cl)c3)C(=O)N2C1 | A (a compound having 10 or more and less than 20 is denoted as A) |
| CCO[C@@H]1C[C@H]2C(=O)NC3(CCC3)C(=O)N(C)[C@@H](C3CCCC3)C(=O)N(C)[C@H](C(=O)N(C)C)CC(=O)N(C)[C@@H](CC3CC3)C(=O)N[C@@H]([C@@H](C)CC)C(=O)N(C)CC(=O)N(C)[C@H]3C/C=C\CCN(C3=O)[C@@H](Cc3ccc(C(F)(F)F)cc3)C(=O)N(C)CC(=O)N[C@@H](CCc3ccc4sccc4c3)C(=O)N2C1 | A (a compound having 10 or more and less than 20 is denoted as A) |
| CC[C@H](C)[C@@H]1NC(=O)[C@H](CC)N(C)C(=O)C[C@@H](C(=O)N(C)C)N(C)C(=O)[C@H](C2CCCC2)N(C)C(=O)C2(CCC2)NC(=O)[C@@H]2C[C@@H](F)CN2C(=O)[C@H](CCc2cc(F)c(C(F)(F)F)c(F)c2)NC(=O)CN(C)C(=O)[C@H](Cc2ccc(C(F)(F)F)cc2)N2CC/C=C\C[C@@H](C2=O)N(C)C(=O)CN(C)C1=O | B (a compound having 3 or more and less than 10 is denoted as B) |
| CCO[C@@H]1C[C@H]2C(=O)NC3(CCC3)C(=O)N(C)[C@@H](C3CCCC3)C(=O)N(C)[C@H](C(=O)N3CCCC3)CC(=O)N(C)[C@@H](C)C(=O)N[C@@H]([C@@H](C)CC)C(=O)N(C)CC(=O)N(C)[C@H]3C/C=C\CCN(C3=O)[C@@H](Cc3ccc(C(F)(F)F)cc3)C(=O)N(C)CC(=O)N[C@@H](CCc3cc(F)c(C(F)(F)F)c(F)c3)C(=O)N2C1 | A (a compound having 10 or more and less than 20 is denoted as A) |
| CCO[C@@H]1C[C@H]2C(=O)NC3(CCC3)C(=O)N(C)[C@@H](C(CC)CC)C(=O)N(C)[C@H](C(=O)N(C)C)CC(=O)N(C)[C@@H](CC3CC3)C(=O)N[C@@H]([C@@H](C)CC)C(=O)N(C)CC(=O)N(C)[C@H]3C/C=C\CCN(C3=O)[C@@H](Cc3ccc(C(F)(F)F)cc3)C(=O)N(C)CC(=O)N[C@@H](CCc3ccc4sccc4c3)C(=O)N2C1 | A (a compound having 10 or more and less than 20 is denoted as A) |
| CCO[C@@H]1C[C@H]2C(=O)NC3(CCCC3)C(=O)N(C)[C@@H](C(CC)CC)C(=O)N(C)[C@H](C(=O)N3CCCC3)CC(=O)N(C)[C@@H](COC)C(=O)N[C@@H]([C@@H](C)CC)C(=O)N(C)CC(=O)N(C)[C@H]3C/C=C\CCN(C3=O)[C@@H](CC3CCCCC3)C(=O)N(C)CC(=O)N[C@@H](CCc3cc(F)c(C(F)(F)F)c(F)c3)C(=O)N2C1 | A (a compound having 10 or more and less than 20 is denoted as A) |
| CCO[C@@H]1C[C@H]2C(=O)NC3(CCC3)C(=O)N(C)[C@@H](C3CCCC3)C(=O)N(C)[C@H](C(=O)N(C)C)CC(=O)N(C)[C@@H](CC(C)C)C(=O)N[C@@H]([C@@H](C)CC)C(=O)N(C)CC(=O)N(C)[C@H]3C/C=C\CCN(C3=O)[C@@H](Cc3ccc(C(F)(F)F)cc3)C(=O)N(C)CC(=O)N[C@@H](CCc3ccc4sccc4c3)C(=O)N2C1 | A (a compound having 10 or more and less than 20 is denoted as A) |
| CCO[C@@H]1C[C@H]2C(=O)NC3(CCC3)C(=O)N(C)[C@@H](C(CC)CC)C(=O)N(C)[C@H](C(=O)N(C)C)CC(=O)N(C)[C@@H](CC(C)C)C(=O)N[C@@H]([C@@H](C)CC)C(=O)N(C)CC(=O)N(C)[C@H]3C/C=C\CCN(C3=O)[C@@H](Cc3ccc(C(F)(F)F)cc3)C(=O)N(C)CC(=O)N[C@@H](CCc3ccc(C(F)(F)F)c(OC)c3)C(=O)N2C1 | A (a compound having 10 or more and less than 20 is denoted as A) |
| CCO[C@@H]1C[C@H]2C(=O)NC3(CCC3)C(=O)N(C)[C@@H](C3CCCC3)C(=O)N(C)[C@H](C(=O)N(C)C)CC(=O)N(C)[C@@H](CC(C)C)C(=O)N[C@@H]([C@@H](C)CC)C(=O)N(C)CC(=O)N(C)[C@H]3C/C=C\CCN(C3=O)[C@@H](Cc3ccc(F)cc3)C(=O)N(C)CC(=O)N[C@@H](CCc3ccc4sccc4c3)C(=O)N2C1 | B (a compound having 3 or more and less than 10 is denoted as B) |
| CCC(C)C1NC(=O)C(CC2CCC2)N(C)C(=O)CC(C(=O)N2CCOCC2)N(C)C(=O)C(C2CCCC2)N(C)C(=O)C2(CCC2)NC(=O)C2CCCN2C(=O)C(CCc2ccc(C(F)(F)F)c(Cl)c2)NC(=O)CN(C)C(=O)C(Cc2ccc(C(F)(F)F)cc2)N2CC(C)CCC(C2=O)N(C)C(=O)C2CCN2C1=O (stereo not shown) | B (a compound having 3 or more and less than 10 is denoted as B) |
| CC[C@H](C)[C@@H]1NC(=O)[C@H](CC)N(C)C(=O)C[C@@H](C(=O)N(C)C)N(C)C(=O)[C@H](C2CCCC2)N(C)C(=O)C2(CCC2)NC(=O)[C@@H]2CCCCN2C(=O)[C@H](CCc2cc(F)c(C(F)(F)F)c(F)c2)NC(=O)CN(C)C(=O)[C@H](Cc2ccc(C(F)(F)F)cc2)N2CC/C=C\C[C@@H](C2=O)N(C)C(=O)CN(C)C1=O | A (a compound having 10 or more and less than 20 is denoted as A) |
| CCO[C@@H]1C[C@H]2C(=O)NC3(CCC3)C(=O)N(C)[C@@H](C3CCCC3)C(=O)N(C)[C@H](C(=O)N(C)C)CC(=O)N(C)[C@@H](CC)C(=O)N[C@@H]([C@@H](C)CC)C(=O)N(C)CC(=O)N(C)[C@H]3C/C=C\CCN(C3=O)[C@@H](Cc3ccc(C(F)(F)F)cc3)C(=O)N(C)CC(=O)N[C@@H](CCc3ccc4sccc4c3)C(=O)N2C1 | A (a compound having 10 or more and less than 20 is denoted as A) |
| C=CC[C@H]1C(=O)N[C@@H]([C@@H](C)CC)C(=O)N(C)CC(=O)N(C)[C@H]2C/C=C\CCN(C2=O)[C@@H](CC2CCCCC2)C(=O)N(C)CC(=O)N[C@@H](CCc2cc(F)c(C(F)(F)F)c(F)c2)C(=O)N2C[C@H](OCC)C[C@H]2C(=O)NC2(CCC2)C(=O)N(C)[C@@H](C2CCCC2)C(=O)N(C)[C@H](C(=O)N(C)C)CC(=O)N1C | A (a compound having 10 or more and less than 20 is denoted as A) |
| CCO[C@@H]1C[C@H]2C(=O)NC3(CCC3)C(=O)N(C)[C@@H](C3CCCC3)C(=O)N(C)[C@H](C(=O)N(C)C)CC(=O)N(C)[C@@H](CC)C(=O)N[C@@H](C(C)C)C(=O)N(C)CC(=O)N(C)[C@H]3C/C=C\CCN(C3=O)[C@@H](Cc3ccc(C(F)(F)F)cc3)C(=O)N(C)CC(=O)N[C@@H](CCc3cc(F)c(C(F)(F)F)c(F)c3)C(=O)N2C1 | B (a compound having 3 or more and less than 10 is denoted as B) |
